Results as given in PubChem BioAssay AID624136 (Broad Institute, 2012).
The list shows a part of the results, in another mix than the full data. Some salts and complexes are drawn in separate pieces, as the source files them; their charges need not balance. Activity calls are given as the source filed them.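 The calls were made as follows: active = compounds whose four printed spots each glow above background more than chance allows, each with a p-value under 7%; inactive = the rest.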

Each compound was assayed on mutant tumor protein p53 (GST-tagged), Homo sapiens (assay: small molecules binding GST-tagged mutant p53 – biochemical, small molecule microarray, anti-GST fluorescence, primary screen (AID 624136)).
C/C1=C2N=C(/C=C3N=C(/C(C)=C4\[N-][C@@](C)([C@@H]5N=C1[C@](C)(CCC(=O)NCC(C)OP(=O)(O)O[C@@H]1[C@H](O)[C@H](n6cnc7cc(C)c(C)cc76)O[C@H]1CO)[C@H]5CC(N)=O)[C@@](C)(CC(N)=O)[C@@H]4CCC(N)=O)[C@@](C)(CC(N)=O)[C@@H]\3CCC(N)=O)C(C)(C)[C@@H]/2CCC(N)=O.[C-]#N.[Co+3] (stereo partly specified) was tested, and the outcome was “inactive”. In the case of COc1ccc(CN2/C(=N\P(=O)(Oc3ccccc3)Oc3ccccc3)Cc3ccccc3C2C2CC2)cc1 (stereo unspecified), the outcome is reported as “inactive”. In the case of COc1ccc(CN2/C(=N/P(=O)(Oc3ccccc3)Oc3ccccc3)CC(C)=CC2C)cc1 (stereo unspecified), the outcome is reported as “inactive”. C=CC1C=C(C)C/C(=N\P(=O)(Oc2ccccc2)Oc2ccccc2)N1Cc1ccc(OC)cc1 (stereo unspecified) was tested, and the outcome was “inactive”. C/C1=C2N=C(/C=C3N=C(/C(C)=C4\[N-][C@@](C)([C@@H]5N=C1[C@](C)(CCC(=O)NC[C@@H](C)OP(=O)(O)O[C@H]1[C@@H](O)[C@@H](n6cnc7cc(C)c(C)cc76)O[C@@H]1CO)[C@H]5CC(N)=O)[C@@](C)(CC(N)=O)[C@@H]4CCC(N)=O)[C@@](C)(CC(N)=O)[C@@H]\3CCC(N)=O)C(C)(C)[C@@H]/2CCC(N)=O.[C-]#N.[Co+3] was tested, and the outcome was “inactive”. With CN(C(=O)Cc1ccc(Cl)c(Cl)c1)C1CCCCC1N1CCCC1 (stereo unspecified) the outcome was “inactive”.
